In US8080523B2 (The Regents of the University of California, priority 2004, dated 2011):
Entries after “also recorded” stand apart in the source; their conditions may differ.

The chains behind the UniProt entries cited, without tags or fusion partners. Where a name states a change or a piece, a line headed by the entry shows the natural chain unless it says otherwise.
UniProt P16390, whole entry: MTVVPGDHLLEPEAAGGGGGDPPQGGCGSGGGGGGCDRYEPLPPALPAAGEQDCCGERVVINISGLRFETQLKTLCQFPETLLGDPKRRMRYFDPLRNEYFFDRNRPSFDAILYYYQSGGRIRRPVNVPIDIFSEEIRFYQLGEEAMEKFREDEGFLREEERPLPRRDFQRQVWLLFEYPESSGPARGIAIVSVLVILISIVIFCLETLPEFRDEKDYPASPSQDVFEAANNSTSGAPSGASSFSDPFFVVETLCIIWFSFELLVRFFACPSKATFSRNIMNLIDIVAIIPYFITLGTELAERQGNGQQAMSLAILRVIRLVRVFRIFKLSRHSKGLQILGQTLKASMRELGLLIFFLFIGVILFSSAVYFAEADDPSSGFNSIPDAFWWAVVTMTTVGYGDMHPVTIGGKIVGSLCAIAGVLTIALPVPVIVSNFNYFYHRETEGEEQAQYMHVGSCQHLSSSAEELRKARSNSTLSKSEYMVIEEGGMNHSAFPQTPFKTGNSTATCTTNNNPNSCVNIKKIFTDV
UniProt Q12809: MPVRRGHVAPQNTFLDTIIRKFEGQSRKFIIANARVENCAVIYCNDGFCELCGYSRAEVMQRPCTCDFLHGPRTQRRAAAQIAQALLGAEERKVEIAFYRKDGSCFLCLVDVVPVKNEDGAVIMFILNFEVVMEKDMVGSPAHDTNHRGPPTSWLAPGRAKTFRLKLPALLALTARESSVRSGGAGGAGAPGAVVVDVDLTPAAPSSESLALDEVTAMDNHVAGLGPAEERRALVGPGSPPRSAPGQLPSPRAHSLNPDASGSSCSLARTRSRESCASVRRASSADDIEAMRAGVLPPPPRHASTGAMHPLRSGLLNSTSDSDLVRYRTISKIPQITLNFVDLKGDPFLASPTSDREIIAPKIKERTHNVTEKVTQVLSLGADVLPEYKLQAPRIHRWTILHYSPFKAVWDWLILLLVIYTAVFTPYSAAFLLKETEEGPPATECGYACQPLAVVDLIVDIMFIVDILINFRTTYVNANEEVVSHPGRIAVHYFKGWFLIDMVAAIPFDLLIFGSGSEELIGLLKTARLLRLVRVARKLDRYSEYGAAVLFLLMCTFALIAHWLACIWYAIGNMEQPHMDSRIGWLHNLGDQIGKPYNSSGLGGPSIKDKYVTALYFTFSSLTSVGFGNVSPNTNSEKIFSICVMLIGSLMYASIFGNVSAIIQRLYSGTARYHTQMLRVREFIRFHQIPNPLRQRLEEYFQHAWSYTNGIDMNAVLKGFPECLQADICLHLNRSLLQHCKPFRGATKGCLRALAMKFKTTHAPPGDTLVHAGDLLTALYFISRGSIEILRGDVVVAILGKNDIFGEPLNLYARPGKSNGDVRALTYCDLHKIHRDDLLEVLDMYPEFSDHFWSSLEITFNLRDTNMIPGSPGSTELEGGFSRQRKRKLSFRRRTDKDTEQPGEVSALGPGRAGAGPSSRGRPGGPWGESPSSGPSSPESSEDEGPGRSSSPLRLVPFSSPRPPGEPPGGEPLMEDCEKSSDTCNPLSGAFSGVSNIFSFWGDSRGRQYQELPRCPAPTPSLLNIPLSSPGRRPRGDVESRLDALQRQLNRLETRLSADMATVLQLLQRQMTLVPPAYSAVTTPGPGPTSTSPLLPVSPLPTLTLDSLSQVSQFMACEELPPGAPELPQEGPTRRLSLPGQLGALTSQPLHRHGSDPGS
UniProt Q13936, whole entry: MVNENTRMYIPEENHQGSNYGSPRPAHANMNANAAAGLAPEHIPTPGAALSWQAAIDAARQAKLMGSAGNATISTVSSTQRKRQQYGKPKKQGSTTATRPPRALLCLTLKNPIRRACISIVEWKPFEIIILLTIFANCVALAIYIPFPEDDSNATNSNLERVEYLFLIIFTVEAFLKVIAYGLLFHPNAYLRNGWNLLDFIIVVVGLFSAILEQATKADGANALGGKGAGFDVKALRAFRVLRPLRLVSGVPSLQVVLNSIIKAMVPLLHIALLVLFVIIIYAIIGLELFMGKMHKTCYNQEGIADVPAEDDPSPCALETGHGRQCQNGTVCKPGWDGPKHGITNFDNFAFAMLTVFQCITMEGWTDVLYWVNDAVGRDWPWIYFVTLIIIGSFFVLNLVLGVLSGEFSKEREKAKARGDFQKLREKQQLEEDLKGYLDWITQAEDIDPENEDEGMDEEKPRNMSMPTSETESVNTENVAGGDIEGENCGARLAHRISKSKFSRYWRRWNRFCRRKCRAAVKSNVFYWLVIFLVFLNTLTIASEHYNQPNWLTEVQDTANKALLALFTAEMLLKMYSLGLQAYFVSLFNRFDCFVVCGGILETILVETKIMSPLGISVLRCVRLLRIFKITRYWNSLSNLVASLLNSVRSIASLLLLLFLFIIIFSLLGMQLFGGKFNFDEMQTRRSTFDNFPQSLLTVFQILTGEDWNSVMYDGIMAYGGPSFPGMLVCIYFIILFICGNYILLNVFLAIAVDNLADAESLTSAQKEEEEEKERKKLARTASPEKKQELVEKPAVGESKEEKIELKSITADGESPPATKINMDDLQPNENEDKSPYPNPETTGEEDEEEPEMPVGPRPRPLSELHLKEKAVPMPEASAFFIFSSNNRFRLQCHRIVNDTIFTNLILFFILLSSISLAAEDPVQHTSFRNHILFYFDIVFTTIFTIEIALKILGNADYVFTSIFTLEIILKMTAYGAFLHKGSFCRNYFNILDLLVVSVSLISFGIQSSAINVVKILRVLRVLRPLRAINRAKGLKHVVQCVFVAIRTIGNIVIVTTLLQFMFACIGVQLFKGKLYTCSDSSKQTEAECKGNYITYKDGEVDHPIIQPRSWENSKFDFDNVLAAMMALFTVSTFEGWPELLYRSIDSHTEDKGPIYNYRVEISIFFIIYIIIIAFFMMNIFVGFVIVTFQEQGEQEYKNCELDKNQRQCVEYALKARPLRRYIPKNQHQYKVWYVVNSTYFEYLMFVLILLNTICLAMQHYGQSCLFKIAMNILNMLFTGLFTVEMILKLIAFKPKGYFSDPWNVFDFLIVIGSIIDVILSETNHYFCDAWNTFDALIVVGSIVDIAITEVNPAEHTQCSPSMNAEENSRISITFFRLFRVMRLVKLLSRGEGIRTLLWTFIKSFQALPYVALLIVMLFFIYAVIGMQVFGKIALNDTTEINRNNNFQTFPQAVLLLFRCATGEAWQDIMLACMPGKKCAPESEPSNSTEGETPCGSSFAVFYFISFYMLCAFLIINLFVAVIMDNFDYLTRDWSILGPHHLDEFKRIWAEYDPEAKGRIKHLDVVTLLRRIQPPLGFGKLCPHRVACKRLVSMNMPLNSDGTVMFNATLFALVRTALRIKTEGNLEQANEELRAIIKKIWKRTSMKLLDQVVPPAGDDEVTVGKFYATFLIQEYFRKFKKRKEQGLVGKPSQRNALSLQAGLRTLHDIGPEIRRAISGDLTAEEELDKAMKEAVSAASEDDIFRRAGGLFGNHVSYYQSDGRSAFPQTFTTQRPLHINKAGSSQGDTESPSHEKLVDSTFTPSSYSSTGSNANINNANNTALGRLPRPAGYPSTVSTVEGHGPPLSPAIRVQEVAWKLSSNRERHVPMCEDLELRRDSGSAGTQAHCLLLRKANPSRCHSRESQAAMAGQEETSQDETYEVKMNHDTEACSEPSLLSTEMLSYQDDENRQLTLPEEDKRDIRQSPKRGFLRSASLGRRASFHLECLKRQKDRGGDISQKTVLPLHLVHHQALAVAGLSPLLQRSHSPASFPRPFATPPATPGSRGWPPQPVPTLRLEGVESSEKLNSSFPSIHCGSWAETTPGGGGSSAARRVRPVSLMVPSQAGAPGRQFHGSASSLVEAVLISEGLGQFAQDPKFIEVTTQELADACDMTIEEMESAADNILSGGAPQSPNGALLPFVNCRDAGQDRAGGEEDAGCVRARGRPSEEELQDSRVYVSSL
UniProt P16388, whole entry: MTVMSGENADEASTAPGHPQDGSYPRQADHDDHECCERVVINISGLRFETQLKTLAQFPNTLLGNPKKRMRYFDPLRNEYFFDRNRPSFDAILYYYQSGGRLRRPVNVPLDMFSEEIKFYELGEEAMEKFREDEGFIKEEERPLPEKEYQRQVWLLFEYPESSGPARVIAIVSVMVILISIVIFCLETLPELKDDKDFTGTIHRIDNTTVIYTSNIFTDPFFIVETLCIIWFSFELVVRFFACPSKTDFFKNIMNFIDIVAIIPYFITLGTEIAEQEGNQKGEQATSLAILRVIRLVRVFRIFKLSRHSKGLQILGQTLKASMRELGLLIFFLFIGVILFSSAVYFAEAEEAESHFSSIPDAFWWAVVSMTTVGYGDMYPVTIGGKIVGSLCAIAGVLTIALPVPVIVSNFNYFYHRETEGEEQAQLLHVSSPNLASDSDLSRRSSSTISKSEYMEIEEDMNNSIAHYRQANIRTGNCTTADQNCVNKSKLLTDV

Experiments:
Kv1.3 [1] = biological target: T1, Kv1.3 (Mus musculus, UniProt P16390); experiment: Patch-clamp block of Kv1.3 channels stably expressed in L929 cells; format: cell-based
T1 construct: expressed in transfected cells

Kv1.3 [2] = experiment: Kd on Kv1.3 [pM]
Kv11.1 (HERG) = Kv11.1 (HERG) (Homo sapiens, UniProt Q12809); experiment: Ion channel specificity panel: Kv11.1 (HERG); format: cell-based
Cav1.2 = Cav1.2 (Homo sapiens, UniProt Q13936); experiment: Ion channel specificity panel: Cav1.2; format: cell-based
[3] = format: in vivo, rat; conditions: single subcutaneous injection of 200 mg/kg
[4] = Stability in rat plasma or PBS containing 2% rat plasma at 37° C.; format: in vitro ADME; conditions: rat plasma
human PBMCs = experiment: Cytotoxicity (% dead cells), human PBMCs; format: cell-based; conditions: 100 nM, 48 hours
[5] = Cytotoxicity (% dead cells), PAS T cells; format: cell-based, rat; conditions: 100 nM, 48 hours
[6] = Cytotoxicity (% dead cells), Burkitt lymphoma; format: cell-based; conditions: 100 nM, 48 hours
conscious rats = experiment: Heart rate variability analysis (electrocardiogram) in conscious rats; format: in vivo, rat; conditions: acute, 10 μg/kg
Rats with EAE = experiment: Toxicity in rats with EAE; format: in vivo, rat; conditions: 10 mg/kg/day for 10 days
Kv1.1 = biological target: T2, Kv1.1 (Mus musculus, UniProt P16388); experiment: Patch-clamp block of Kv1.1 channels stably expressed in L929 cells; format: cell-based
T2 construct: expressed in transfected cells

## CC[C@H](C)[C@@H]1NC(=O)[C@@H](NC(=O)[C@H](CO)NC(=O)[C@H](CCCNC(=N)N)NC(=O)COCCOCCNC(=O)[C@H](N)Cc2ccc(OP(=O)(O)O)cc2)CSSC[C@@H](C(=O)O)NC(=O)[C@H]([C@@H](C)O)NC(=O)CNC(=O)[C@@H]2CSSC[C@@H]3NC(=O)[C@H](CCC(N)=O)NC(=O)[C@H](Cc4ccccc4)NC(=O)[C@H](C)NC(=O)[C@H]([C@@H](C)O)NC(=O)[C@H](CSSC[C@H](NC(=O)[C@H](Cc4ccccc4)NC(=O)[C@H](CO)NC(=O)[C@H](CC(C)C)NC(=O)[C@H](CCCNC(=N)N)NC(=O)[C@H](Cc4ccc(O)cc4)NC(=O)[C@H](CCCCN)NC(=O)[C@H](CCSC)NC(=O)[C@H](CO)NC(=O)[C@H](Cc4c[nH]cn4)NC(=O)[C@H](CCCCN)NC3=O)C(=O)N[C@@H](CCCNC(=N)N)C(=O)N[C@@H](CCCCN)C(=O)N[C@@H]([C@@H](C)O)C(=O)N2)NC(=O)[C@H](CCCNC(=N)N)NC(=O)[C@H](CO)NC(=O)[C@H](CCCCN)NC(=O)[C@@H]2CCCN2C(=O)[C@H]([C@@H](C)CC)NC(=O)[C@H]([C@@H](C)O)NC(=O)[C@H](CC(=O)O)NC1=O [ShK(D5)]
Kv1.3 [1]
  potency compared with ShK(L5): an order of magnitude less potent
Kv1.3 [2]
  Kd: 1.1 nM

## CC[C@H](C)[C@@H]1NC(=O)[C@@H](NC(=O)[C@H](CO)NC(=O)[C@H](CCCNC(=N)N)NC(=O)COCCOCCNC(=O)[C@@H](N)Cc2ccc(OP(=O)(O)O)cc2)CSSC[C@@H](C(=O)O)NC(=O)[C@H]([C@@H](C)O)NC(=O)CNC(=O)[C@@H]2CSSC[C@@H]3NC(=O)[C@H](CCC(N)=O)NC(=O)[C@H](Cc4ccccc4)NC(=O)[C@H](C)NC(=O)[C@H]([C@@H](C)O)NC(=O)[C@H](CSSC[C@H](NC(=O)[C@H](Cc4ccccc4)NC(=O)[C@H](CO)NC(=O)[C@H](CC(C)C)NC(=O)[C@H](CCCNC(=N)N)NC(=O)[C@H](Cc4ccc(O)cc4)NC(=O)[C@H](CCCCN)NC(=O)[C@H](CCSC)NC(=O)[C@H](CO)NC(=O)[C@H](Cc4cnc[nH]4)NC(=O)[C@H](CCCCN)NC3=O)C(=O)N[C@@H](CCCNC(=N)N)C(=O)N[C@@H](CCCCN)C(=O)N[C@@H]([C@@H](C)O)C(=O)N2)NC(=O)[C@H](CCCNC(=N)N)NC(=O)[C@H](CO)NC(=O)[C@H](CCCCN)NC(=O)[C@@H]2CCCN2C(=O)[C@H]([C@@H](C)CC)NC(=O)[C@H]([C@@H](C)O)NC(=O)[C@H](CC(=O)O)NC1=O [ShK(L5)]
Kv11.1 (HERG)
  Kd: > 100 nM
Kv11.1 (HERG); 100 nM
  effect on Kv11.1 channels: no effect
Cav1.2
  Kd: > 100 nM
[3]
  Peak serum level: 12 nM
  time at which detectable in serum after injection: 5 min
[4]
  stability in plasma: remarkably stable in plasma; also recorded: extremely stable in plasma
Human PBMCs
  cytotoxicity in human and rat lymphoid cells: minimal cytotoxicity
[5]
  cytotoxicity at 0.1 µM: 8.1 ± 0.8%
[6]
  cytotoxicity at 0.1 µM: 3.1 ± 0.9%
Conscious rats
  HF (n.u.): 79 ± 37 n.u.
  LF (n.u.): 64 ± 10 n.u.
  SDANN5 min: 6.9 ± 2.3
Rats with EAE
  signs of toxicity: no signs of toxicity

## CC[C@H](C)[C@@H]1NC(=O)[C@@H](NC(=O)[C@H](CO)NC(=O)[C@H](CCCNC(=N)N)NC(=O)COCCOCCNC(=O)[C@@H](N)Cc2ccc(OP(=O)(O)OC)cc2)CSSC[C@@H](C(=O)O)NC(=O)[C@H]([C@@H](C)O)NC(=O)CNC(=O)[C@@H]2CSSC[C@@H]3NC(=O)[C@H](CCC(N)=O)NC(=O)[C@H](Cc4ccccc4)NC(=O)[C@H](C)NC(=O)[C@H]([C@@H](C)O)NC(=O)[C@H](CSSC[C@H](NC(=O)[C@H](Cc4ccccc4)NC(=O)[C@H](CO)NC(=O)[C@H](CC(C)C)NC(=O)[C@H](CCCNC(=N)N)NC(=O)[C@H](Cc4ccc(O)cc4)NC(=O)[C@H](CCCCN)NC(=O)[C@H](CCSC)NC(=O)[C@H](CO)NC(=O)[C@H](Cc4c[nH]cn4)NC(=O)[C@H](CCCCN)NC3=O)C(=O)N[C@@H](CCCNC(=N)N)C(=O)N[C@@H](CCCCN)C(=O)N[C@@H]([C@@H](C)O)C(=O)N2)NC(=O)[C@H](CCCNC(=N)N)NC(=O)[C@H](CO)NC(=O)[C@H](CCCCN)NC(=O)[C@@H]2CCCN2C(=O)[C@H]([C@@H](C)CC)NC(=O)[C@H]([C@@H](C)O)NC(=O)[C@H](CC(=O)O)NC1=O [ShK(L6)]
Kv1.1
  selectivity for Kv1.3 over Kv1.1: 11 fold

## CC[C@H](C)[C@@H]1NC(=O)[C@@H](NC(=O)[C@H](CO)NC(=O)[C@H](CCCNC(=N)N)NC(=O)COCCOCCNC(=O)[C@@H](N)Cc2ccc(C(=O)O)cc2)CSSC[C@@H](C(=O)O)NC(=O)[C@H]([C@@H](C)O)NC(=O)CNC(=O)[C@@H]2CSSC[C@@H]3NC(=O)[C@H](CCC(N)=O)NC(=O)[C@H](Cc4ccccc4)NC(=O)[C@H](C)NC(=O)[C@H]([C@@H](C)O)NC(=O)[C@H](CSSC[C@H](NC(=O)[C@H](Cc4ccccc4)NC(=O)[C@H](CO)NC(=O)[C@H](CC(C)C)NC(=O)[C@H](CCCNC(=N)N)NC(=O)[C@H](Cc4ccc(O)cc4)NC(=O)[C@H](CCCCN)NC(=O)[C@H](CCSC)NC(=O)[C@H](CO)NC(=O)[C@H](Cc4c[nH]cn4)NC(=O)[C@H](CCCCN)NC3=O)C(=O)N[C@@H](CCCNC(=N)N)C(=O)N[C@@H](CCCCN)C(=O)N[C@@H]([C@@H](C)O)C(=O)N2)NC(=O)[C@H](CCCNC(=N)N)NC(=O)[C@H](CO)NC(=O)[C@H](CCCCN)NC(=O)[C@@H]2CCCN2C(=O)[C@H]([C@@H](C)CC)NC(=O)[C@H]([C@@H](C)O)NC(=O)[C@H](CC(=O)O)NC1=O [ShK(L9), L-p-COOH-Phe]
Kv1.3 [2]
  Kd: 0.094 ± 0.007 nM

## CC[C@H](C)[C@@H]1NC(=O)[C@@H](NC(=O)[C@H](CO)NC(=O)[C@H](CCCNC(=N)N)NC(=O)COCCOCCNC(=O)[C@@H](N)Cc2ccc(O)cc2)CSSC[C@@H](C(=O)O)NC(=O)[C@H]([C@@H](C)O)NC(=O)CNC(=O)[C@@H]2CSSC[C@@H]3NC(=O)[C@H](CCC(N)=O)NC(=O)[C@H](Cc4ccccc4)NC(=O)[C@H](C)NC(=O)[C@H]([C@@H](C)O)NC(=O)[C@H](CSSC[C@H](NC(=O)[C@H](Cc4ccccc4)NC(=O)[C@H](CO)NC(=O)[C@H](CC(C)C)NC(=O)[C@H](CCCNC(=N)N)NC(=O)[C@H](Cc4ccc(O)cc4)NC(=O)[C@H](CCCCN)NC(=O)[C@H](CCSC)NC(=O)[C@H](CO)NC(=O)[C@H](Cc4c[nH]cn4)NC(=O)[C@H](CCCCN)NC3=O)C(=O)N[C@@H](CCCNC(=N)N)C(=O)N[C@@H](CCCCN)C(=O)N[C@@H]([C@@H](C)O)C(=O)N2)NC(=O)[C@H](CCCNC(=N)N)NC(=O)[C@H](CO)NC(=O)[C@H](CCCCN)NC(=O)[C@@H]2CCCN2C(=O)[C@H]([C@@H](C)CC)NC(=O)[C@H]([C@@H](C)O)NC(=O)[C@H](CC(=O)O)NC1=O [ShK(L4)]
Kv1.3 [2]
  Kd: 0.047 ± 0.006 nM
